# Laboratory results as given in patent US20220257633A1, “METHOD OF TREATING AGE-RELATED MACULAR DEGENERATION” (THE PROVOST, FELLOWS, FOUNDATION SCHOLARS, & THE O, priority 2021, published 2022).
# Amino acid sequences for entries named in this document (tags omitted). Residues count along the entry.
# UniProt O60603, 21-784: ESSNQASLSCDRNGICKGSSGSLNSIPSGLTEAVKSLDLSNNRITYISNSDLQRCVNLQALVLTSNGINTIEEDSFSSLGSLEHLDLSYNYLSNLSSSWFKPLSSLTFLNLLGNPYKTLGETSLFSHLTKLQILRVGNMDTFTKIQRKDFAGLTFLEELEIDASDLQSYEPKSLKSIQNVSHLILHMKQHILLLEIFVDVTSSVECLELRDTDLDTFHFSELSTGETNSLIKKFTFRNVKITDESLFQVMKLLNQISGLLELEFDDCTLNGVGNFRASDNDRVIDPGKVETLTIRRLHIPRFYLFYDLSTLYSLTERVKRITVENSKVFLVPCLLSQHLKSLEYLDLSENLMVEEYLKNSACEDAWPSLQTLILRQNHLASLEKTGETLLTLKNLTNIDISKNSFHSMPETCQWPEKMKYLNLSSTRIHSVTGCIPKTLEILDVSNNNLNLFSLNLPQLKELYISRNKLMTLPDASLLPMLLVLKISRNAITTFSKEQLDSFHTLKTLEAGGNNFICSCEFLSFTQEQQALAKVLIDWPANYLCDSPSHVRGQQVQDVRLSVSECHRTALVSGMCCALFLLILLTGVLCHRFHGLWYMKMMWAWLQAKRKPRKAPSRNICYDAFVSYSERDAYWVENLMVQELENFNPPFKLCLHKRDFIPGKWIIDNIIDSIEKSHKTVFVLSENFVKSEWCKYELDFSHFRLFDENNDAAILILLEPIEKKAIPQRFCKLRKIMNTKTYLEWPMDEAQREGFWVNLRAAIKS
# UniProt Q15399, 25-786: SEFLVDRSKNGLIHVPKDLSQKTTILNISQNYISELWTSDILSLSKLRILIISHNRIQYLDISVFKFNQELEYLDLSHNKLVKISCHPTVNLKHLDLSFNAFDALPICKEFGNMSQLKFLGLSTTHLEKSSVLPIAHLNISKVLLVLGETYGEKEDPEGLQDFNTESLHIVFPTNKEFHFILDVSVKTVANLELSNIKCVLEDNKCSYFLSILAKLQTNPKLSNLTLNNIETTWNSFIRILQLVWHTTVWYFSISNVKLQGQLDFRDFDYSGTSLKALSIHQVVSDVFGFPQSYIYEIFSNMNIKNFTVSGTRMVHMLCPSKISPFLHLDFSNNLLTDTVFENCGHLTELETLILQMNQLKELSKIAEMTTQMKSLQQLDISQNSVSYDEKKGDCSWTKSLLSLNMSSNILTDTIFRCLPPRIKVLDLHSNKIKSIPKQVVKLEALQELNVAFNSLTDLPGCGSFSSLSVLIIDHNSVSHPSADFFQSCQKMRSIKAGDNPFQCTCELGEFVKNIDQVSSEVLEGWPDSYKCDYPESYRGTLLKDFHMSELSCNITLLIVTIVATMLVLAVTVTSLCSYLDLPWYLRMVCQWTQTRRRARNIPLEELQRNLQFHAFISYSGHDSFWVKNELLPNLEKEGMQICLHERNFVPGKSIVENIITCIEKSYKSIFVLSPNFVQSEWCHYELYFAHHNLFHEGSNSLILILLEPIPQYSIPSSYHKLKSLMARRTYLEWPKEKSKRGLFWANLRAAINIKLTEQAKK
# Assays:
# [1] = test system: hfRPE cells or ARPE-19 cells; experiment: Soluble MAC ELISA in cell culture supernatants; type: cell-based, human; conditions: CEP-HSA in the presence of NHS; 24 h
# Procedure: (§1) MCP-1 (TebuBio), and Soluble MAC (Abbexa) was detected in cell supernatants by sandwich ELISA according to manufacturer's instructions. Absorbance was read at 450 nm on a 96 well plate spectrophotometer.
# (§2) Polarised ARPE-19 cells grown on transwell filters were maintained in serum free DMEM F-12 Ham for 48 hours. Cells were stimulated with 10% Normal human serum or heat inactivated normal human serum (Hi) (56° C. 30 minutes) either alone or with human serum albumin (HSA) or CEP-HSA for 24 hours. Where indicated cells were pre-treated for 1 hour with anti-TLR2 blocking antibody (T2.5 Invivogen), IgG control (0.1 μg/ml) or Mal peptide inhibitor (Calbiochem). Supernatants were harvested and assessed for soluble MAC formation by ELISA (Abbexa). Transwell inserts were fixed with 4% Paraformaldehyde for 10 minutes at room temperature, blocked with 5% bovine serum albumin (BSA) for 1 hour at room temperature and incubated with anti-mouse-05b-9 1:25 (Santa cruz) overnight at 4° C. Transwells were washed 3 times in PBS and incubated with goat anti-mouse 647 1:500 (Invitrogen) and Phallodin 1:500 (Invitrogen) for 2 hours at room temperature. Cells were counted stained with Hoechst. […] Staining was analysed using a confocal laser scanning microscope Axio Observer Z1 inverted microscope equipped with a Zeiss LSM 700 T-PMT scanning unit and a 40× plan.
# TLR2 [2] = target: T1, TLR2 (Homo sapiens, UniProt O60603+Q15399); experiment: Membrane attack complex (MAC) formation on ARPE-19 cells, confocal microscopy; type: cell-based; conditions: CEP-HSA in the presence of 10% NHS; 24 h; only combination
# T1 construct: host or cells: ARPE-19 cells
# Procedure: (§3) Bone marrow derived macrophages (BMDMs), human monocytic cell like THP1s, PBMCs ARPE-19 cells, primary human fetal RPE cells or primary retinal microglia were stimulated with the generic TLR2/1 ligand Pam3Cys4 (Invivogen) or with CEP-HSA (kindly provided by Prof. Robert G Salomon (Case Western Reserve University, Cleveland Ohio) at indicated concentrations. Where indicated RPE cells were pre-treated with 0.1 μg/ml TLR2 antibody for 1 hour (T2.5 Invivogen), corresponding IgG control 0.1 μg/ml (Invivogen), Mal peptide inhibitor resuspended in DMSO 40 μM (Calbiochem) or an equal volume of DMSO was used in the control treatment.
# as §2, with “Transwell inserts were fixed with 4% Paraformaldehyde for 10 minutes at room temperature, blocked with 5% bovine serum albumin (BSA) for 1 hour at room temperature and incubated with anti-mouse-05b-9 1:25 (Santa cruz) overnight at 4° C. Transwells were washed 3 times in PBS and incubated with goat anti-mouse 647 1:500 (Invitrogen) and Phallodin 1:500 (Invitrogen) for 2 hours at room temperature.” left out
# TLR2 [3] = target: T1, TLR2; experiment: ZO-1 western blot in hfRPE cells; type: cell-based; conditions: 17.5 or 35 μM CEP-HSA, 20 nM Pam3Cys4, 24 h
# Procedure: as §3
# (§4) Antibodies for CFB (Atlas Antibodies Sigma) 1:250, C3 (MP Biomedicals-855444), C3d 1:1000 (Dako), ZO-1 (Invitrogen) 1:1000 and C5b-9 (Santa Cruz) 1:500 were incubated overnight at 4° C. Polyvinylidene fluoride (PVDF) membranes were wash 3 times with TBS-T and incubated with horseradish peroxidase conjugated anti-rabbit, anti-mouse or anti-goat 1:2000 (Sigma-Aldrich) for 1 hour at room temperature and developed using enhanced chemiluminescence. Densitometry was used to determine relative quantity of MAC and iC3b protein relative to actin loading control using Image J software. Scanned images were converted to 8-bit images. Each protein band was measured to obtain the area and mean value. The area was multiplied by the mean to obtain a measurement for each lane. […]
# TLR2 [4] = target: T1, TLR2; experiment: Immunoblot of secreted CFB and C3 in hfRPE supernatant; type: cell-based; conditions: 17.5 or 35 μM CEP-HSA, 20 nM Pam3Cys4
# Procedure: as §3, §4
# hfRPE cells = experiment: MAC formation on polarised hfRPE cells, confocal microscopy; type: cell-based, human; conditions: 10% NHS and CEP-HSA vs 10% NHS and HSA; 24 h
# Procedure: Polarised ARPE-19 cells grown on transwell filters were maintained in serum free DMEM F-12 Ham for 48 hours. Cells were stimulated with 10% Normal human serum or heat inactivated normal human serum (Hi) (56° C. 30 minutes) either alone or with human serum albumin (HSA) or CEP-HSA for 24 hours. Where indicated cells were pre-treated for 1 hour with anti-TLR2 blocking antibody (T2.5 Invivogen), IgG control (0.1 μg/ml) or Mal peptide inhibitor (Calbiochem). Supernatants were harvested and assessed for soluble MAC formation by ELISA (Abbexa). Transwell inserts were fixed with 4% Paraformaldehyde for 10 minutes at room temperature, blocked with 5% bovine serum albumin (BSA) for 1 hour at room temperature and incubated with anti-mouse-05b-9 1:25 (Santa cruz) overnight at 4° C. Transwells were washed 3 times in PBS and incubated with goat anti-mouse 647 1:500 (Invitrogen) and Phallodin 1:500 (Invitrogen) for 2 hours at room temperature. Cells were counted stained with Hoechst. Transwells inserts were carefully cut with a sterile blade and mounted on to polysine coated slides (Thermo Scientific) using Mowiol® 4-88. Staining was analysed using a confocal laser scanning microscope Axio Observer Z1 inverted microscope equipped with a Zeiss LSM 700 T-PMT scanning unit and a 40× plan.
# TLR2 [5] = target: T1, TLR2; experiment: qPCR of C3 and CFB in hfRPE cells stimulated with CEP-HSA, with or without anti-TLR2; type: cell-based; conditions: 10 μM CEP-HSA 24 h, to similar levels observed for Pam3Cys4
# Procedure: as §3
# Total RNA was extracted from BMDMs, THP1s, ARPE-19 or hfRPE cells using Isolate II RNA extraction kit (Bioline) as per manufacturer's instructions. RNA was reverse transcribed using MMLV Reverse Transcriptase (Promega). Target genes were amplified by real time PCR with SensiFast SYBR Green (Bioline) using the ABI 7900HT system (Applied Biosystems). The cycling threshold method was used for relative quantification after normalisation to the ‘housekeeping’ gene βActin. The primers used were: […]
# TLR2 [6] = target: T1, TLR2; experiment: MCP-1/CCL2 ELISA in ARPE-19 cell supernatants; type: cell-based
# Procedure: as §3
# 0.4 μM polyester transwell inserts (VWR) were coated with 100 μg/ml Collagen IV (Sigma-Aldrich C5533) for 4 hours. ARPE-19 cells were seeded at a density of 1.7×10^5 cells per cm^2 in DMEM F-12 Ham containing 10% (FBS). Two days later medium was replaced with complete medium containing 1% FBS and replenished twice weekly for 4-6 weeks.
# as §1
# [7] = polarized RPE cells on transwells >5 weeks, CEP or CEP+NHS
substance,measurement,setting,value
"CEP-HSA: 2-(w-Carboxyethyl) pyrrole (CEP) adducted to human serum albumin, oxidative stress product and TLR2 ligand",soluble MAC by ELISA,[1],significantly drive MAC formation
same,MAC formation on the membrane of ARPE-19 cells,TLR2 [2],induced MAC formation
same,ZO-1 expression,TLR2 [3],marked decrease
same,secreted CFB protein in supernatant,TLR2 [4]; 24 h,secretion
same,secreted C3 protein in supernatant,TLR2 [4]; 48 h,secretion
same,MAC formed on hfRPE cells,hfRPE cells,significantly more MAC
same,C3 transcripts,TLR2 [5],induced
same,CFB transcripts,TLR2 [5],induced
same,secretion of MCP-1/CCL2,"TLR2 [6]; ARPE-19, CEP-HSA+NHS over NHS or CEP-HSA alone",significant increase
same,MCP-1/CCL2 release into the apical compartment,TLR2 [6]; [7],strong cytokine release
same,MCP-1/CCL2 secretion into the basolateral compartment,TLR2 [6]; [7],no significant secretion
